Target: T1, G3BP2 NTF2 domain, His-GST-tagged (human, UniProt Q9UN86 11-133)
T1 sequence (looked up): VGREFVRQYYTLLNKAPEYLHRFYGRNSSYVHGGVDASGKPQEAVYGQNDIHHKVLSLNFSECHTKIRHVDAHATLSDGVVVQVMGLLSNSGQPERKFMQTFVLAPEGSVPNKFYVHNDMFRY
Details: both partners purified

Row | Binder | Kd [µM]
1 | NLQFGALQFGSEPV (peptide, UniProt Q14157 515-528, looked up) [UBAP2L 515-528 peptide] | 34
2 | ESLPFSFGTLSSWELE (peptide, UniProt P35638 4-19, looked up) [DDIT3 4-19 peptide] | 14
3 | PSKLPTFGAPEQLVD (peptide, UniProt Q14258 400-414, looked up) [TRIM25 400-414 peptide] | 46
4 | PVPPIEFGVSPKDSD (peptide, UniProt Q5JSZ5 1780-1794, looked up) [PRRC2B 1780-1794 peptide] | 10

Target: G3BP1 NTF2 domain (human, UniProt Q13283 11-133)
Details: both partners purified

Row | Binder | Ki [µM] | IC50 [µM]
5 | NLQFGALQFGSEPVY (N-terminal acetylation) [UBAP2L peptide 515-528] | 34 | –
6 | ESLPFSFGTLSSWELE (N-terminal acetylation) [DDIT3 peptide 4-19] | 14 | 44
7 | AQMQGPYNFIQDSMLD (N-terminal acetylation; C-terminal amidation) [CAPRIN1 peptide 364-379] | – | 46
8 | PVPPIEFGVSPKDSDY (N-terminal acetylation; C-terminal amidation) [PRRC2B peptide 1780-1794] | 10 | 33
